# From PubChem BioAssay (EPA / NIEHS)
# The entries are a selection whose mix differs from that of the whole data set. Calls of active or inactive are those of the source. The calls were made as follows: active = hit-call score of the fitted dose curve at least 0.9, where 1 is the maximum; inactive = score below 0.9.
# Assay: ATG_RORE_CIS: Attagene CIS-FACTORIAL HepG2 Assay for human RAR-related Orphan Receptor Element (RORE) (AID 2282959)
# Details: HepG2 Attagene cis-factorial RORE reporter, mRNA; actives raise or lower the signal
SMILES,outcome,AC50
CCn1nc(C)c2c1C(=O)NCC(c1ccc(O)cc1)=N2,inactive,–
Cc1c(C)c2c(c(C)c1O)CCC(C)(COc1ccc(CC3SC(=O)NC3=O)cc1)O2 (stereo not given),–,active: 11 µM
CC(C)(COC(=O)c1ccccc1)COC(=O)c1ccccc1,–,active: 51.1 µM
CCCCCCOC(C)=O,inactive,–
CCCCCC1=CCCC1=O,–,active: 163 µM
CCCCCCCCc1ccc(Nc2ccc(CCCCCCCC)cc2)cc1,inactive,–
CCOC(=O)c1ccccc1OC,inactive,–
CC1CCC(=O)C1=O (stereo not given),inactive,–
C=C(C)C(=O)OCCOCCOC(=O)C(=C)C,inactive,–
CCCCC(CC)COC(=O)CCCCCCCC(=O)OCC(CC)CCCC (stereo not given),inactive,–
C1CCSC1,inactive,–
ON(Cc1ccccc1)Cc1ccccc1,inactive,–
NNS(=O)(=O)c1ccc(Oc2ccc(S(=O)(=O)NN)cc2)cc1,inactive,–
CCN(CC)CCNc1ccc(CNC=O)c2sc3ccc(OC)cc3c(=O)c12,inactive,–
O=c1[nH]c(=O)n([C@H]2CCCO2)cc1F,inactive,–
CC1(C)O[C@@H]2C[C@H]3[C@@H]4C[C@H](F)C5=CC(=O)C=C[C@]5(C)[C@@]4(F)[C@@H](O)C[C@]3(C)[C@]2(C(=O)CO)O1,inactive,–
COc1ccc(NC(C)=O)cc1N,inactive,–
COc1ccc(-c2coc3cc(O)cc(O)c3c2=O)cc1,–,active: 21.4 µM
CC1=CC[C@@H](C(C)(C)O)CC1,inactive,–
OCCN1CCNCC1,inactive,–

SMILES,outcome,AC50
Nc1cccc(S(=O)(=O)c2cccc(N)c2)c1,inactive,–
CCCOC(=O)c1c(Cl)c(Cl)c(Cl)c(Cl)c1C(=O)OCCC,inactive,–
CCC1(C)C(=O)N(Cl)C(=O)N1Cl (stereo not given),inactive,–
O=C(O)CCN(C1(C(=O)NO)CCCC1)S(=O)(=O)c1ccc(Oc2ccc(F)cc2)cc1,inactive,–
COc1ccc(-c2coc3cc(O)ccc3c2=O)cc1,inactive,–
OCCNCCO,inactive,–
Nc1ccc2cc(S(=O)(=O)O)cc(O)c2c1N=Nc1ccccc1C(F)(F)F,inactive,–
Cc1cc(=O)oc2cc(O)ccc12,inactive,–
C=C1[C@H]2CC[C@@H]3[C@H]2C(C)(C)CCC[C@]13C,inactive,–
CCNc1nc(NC(C)(C)C)nc(OC)n1,inactive,–
Nc1nc2ccc([N+](=O)[O-])cc2s1,inactive,–
O=C(CCCCCCCCc1cccnc1)N1CCC(C=C(c2ccccc2)c2ccccc2)CC1,–,active: 2.81 µM
COCCc1ccc(OCC(O)CNC(C)C)cc1 (stereo not given),inactive,–
C=C(C)C(=O)OCCOC(=O)CC(C)=O,inactive,–
CCOC(=O)[C@@H](C)Oc1ccc(Oc2nc3ccc(Cl)cc3o2)cc1,inactive,–
CCC(C)(O)CCC=C(C)C (stereo not given),inactive,–
Oc1ccc(Cl)cc1Cc1cc(Cl)ccc1O,–,active: 5.31 µM
CC(C)(CO)COC(=O)C(C)(C)CO,inactive,–
O=C(Cl)c1cc(C(=O)Cl)cc(C(=O)Cl)c1,–,active: 100 µM
O=P(OC(CCl)CCl)(OC(CCl)CCl)OC(CCl)CCl,inactive,–
